{"sequences": {"note": "Amino acid sequences for entries named in this document (tags omitted). Residues count along the entry.", "UniProt Q9UQD0, whole entry": "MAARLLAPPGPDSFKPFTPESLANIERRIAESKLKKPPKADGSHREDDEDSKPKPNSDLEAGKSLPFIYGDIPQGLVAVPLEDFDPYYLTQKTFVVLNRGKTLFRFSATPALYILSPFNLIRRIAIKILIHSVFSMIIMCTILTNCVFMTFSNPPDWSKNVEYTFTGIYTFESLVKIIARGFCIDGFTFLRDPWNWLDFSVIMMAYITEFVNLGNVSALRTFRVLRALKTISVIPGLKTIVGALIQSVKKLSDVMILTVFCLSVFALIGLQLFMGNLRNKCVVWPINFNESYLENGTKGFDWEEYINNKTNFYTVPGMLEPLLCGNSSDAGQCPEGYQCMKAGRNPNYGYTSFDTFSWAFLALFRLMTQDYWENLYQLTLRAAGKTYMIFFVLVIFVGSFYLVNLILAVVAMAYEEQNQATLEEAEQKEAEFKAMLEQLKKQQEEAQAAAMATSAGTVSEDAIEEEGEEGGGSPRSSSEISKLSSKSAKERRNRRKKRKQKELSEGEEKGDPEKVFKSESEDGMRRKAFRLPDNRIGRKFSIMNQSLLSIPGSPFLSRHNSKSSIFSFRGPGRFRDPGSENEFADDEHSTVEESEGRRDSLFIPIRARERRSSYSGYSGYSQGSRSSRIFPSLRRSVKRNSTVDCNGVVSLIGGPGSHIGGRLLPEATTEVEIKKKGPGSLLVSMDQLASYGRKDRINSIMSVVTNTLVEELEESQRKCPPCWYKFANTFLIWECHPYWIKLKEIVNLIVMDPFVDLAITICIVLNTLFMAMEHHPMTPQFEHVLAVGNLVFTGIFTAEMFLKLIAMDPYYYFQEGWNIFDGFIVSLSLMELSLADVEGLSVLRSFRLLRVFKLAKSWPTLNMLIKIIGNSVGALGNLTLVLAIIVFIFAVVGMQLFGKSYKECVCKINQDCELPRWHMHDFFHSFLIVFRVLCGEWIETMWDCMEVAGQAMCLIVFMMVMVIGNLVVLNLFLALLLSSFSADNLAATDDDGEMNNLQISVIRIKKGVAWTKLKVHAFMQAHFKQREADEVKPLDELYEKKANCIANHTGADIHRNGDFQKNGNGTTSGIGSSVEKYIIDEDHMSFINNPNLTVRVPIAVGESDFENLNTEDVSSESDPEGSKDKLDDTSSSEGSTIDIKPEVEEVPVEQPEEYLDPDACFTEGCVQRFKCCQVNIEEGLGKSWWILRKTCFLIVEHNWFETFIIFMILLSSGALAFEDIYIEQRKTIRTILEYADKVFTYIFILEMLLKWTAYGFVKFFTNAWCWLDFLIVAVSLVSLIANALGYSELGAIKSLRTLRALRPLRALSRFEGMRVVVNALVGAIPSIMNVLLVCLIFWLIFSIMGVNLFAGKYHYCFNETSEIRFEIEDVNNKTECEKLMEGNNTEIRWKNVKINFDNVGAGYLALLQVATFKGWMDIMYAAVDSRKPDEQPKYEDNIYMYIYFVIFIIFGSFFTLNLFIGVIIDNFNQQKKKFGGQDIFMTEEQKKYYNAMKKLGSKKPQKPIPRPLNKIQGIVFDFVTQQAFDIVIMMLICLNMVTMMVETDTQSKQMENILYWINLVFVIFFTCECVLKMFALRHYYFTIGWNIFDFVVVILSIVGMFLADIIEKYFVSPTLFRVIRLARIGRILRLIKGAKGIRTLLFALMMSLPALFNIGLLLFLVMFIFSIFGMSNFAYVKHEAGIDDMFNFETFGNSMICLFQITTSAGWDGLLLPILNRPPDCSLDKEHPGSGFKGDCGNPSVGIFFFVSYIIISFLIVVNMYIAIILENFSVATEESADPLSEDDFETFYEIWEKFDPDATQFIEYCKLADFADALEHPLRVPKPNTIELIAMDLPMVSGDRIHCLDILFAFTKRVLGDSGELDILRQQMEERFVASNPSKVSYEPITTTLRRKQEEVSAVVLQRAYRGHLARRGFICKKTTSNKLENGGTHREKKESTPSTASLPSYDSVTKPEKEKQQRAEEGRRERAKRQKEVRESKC", "UniProt Q15858, 1-1977 isoform Q15858-3 W1150R": "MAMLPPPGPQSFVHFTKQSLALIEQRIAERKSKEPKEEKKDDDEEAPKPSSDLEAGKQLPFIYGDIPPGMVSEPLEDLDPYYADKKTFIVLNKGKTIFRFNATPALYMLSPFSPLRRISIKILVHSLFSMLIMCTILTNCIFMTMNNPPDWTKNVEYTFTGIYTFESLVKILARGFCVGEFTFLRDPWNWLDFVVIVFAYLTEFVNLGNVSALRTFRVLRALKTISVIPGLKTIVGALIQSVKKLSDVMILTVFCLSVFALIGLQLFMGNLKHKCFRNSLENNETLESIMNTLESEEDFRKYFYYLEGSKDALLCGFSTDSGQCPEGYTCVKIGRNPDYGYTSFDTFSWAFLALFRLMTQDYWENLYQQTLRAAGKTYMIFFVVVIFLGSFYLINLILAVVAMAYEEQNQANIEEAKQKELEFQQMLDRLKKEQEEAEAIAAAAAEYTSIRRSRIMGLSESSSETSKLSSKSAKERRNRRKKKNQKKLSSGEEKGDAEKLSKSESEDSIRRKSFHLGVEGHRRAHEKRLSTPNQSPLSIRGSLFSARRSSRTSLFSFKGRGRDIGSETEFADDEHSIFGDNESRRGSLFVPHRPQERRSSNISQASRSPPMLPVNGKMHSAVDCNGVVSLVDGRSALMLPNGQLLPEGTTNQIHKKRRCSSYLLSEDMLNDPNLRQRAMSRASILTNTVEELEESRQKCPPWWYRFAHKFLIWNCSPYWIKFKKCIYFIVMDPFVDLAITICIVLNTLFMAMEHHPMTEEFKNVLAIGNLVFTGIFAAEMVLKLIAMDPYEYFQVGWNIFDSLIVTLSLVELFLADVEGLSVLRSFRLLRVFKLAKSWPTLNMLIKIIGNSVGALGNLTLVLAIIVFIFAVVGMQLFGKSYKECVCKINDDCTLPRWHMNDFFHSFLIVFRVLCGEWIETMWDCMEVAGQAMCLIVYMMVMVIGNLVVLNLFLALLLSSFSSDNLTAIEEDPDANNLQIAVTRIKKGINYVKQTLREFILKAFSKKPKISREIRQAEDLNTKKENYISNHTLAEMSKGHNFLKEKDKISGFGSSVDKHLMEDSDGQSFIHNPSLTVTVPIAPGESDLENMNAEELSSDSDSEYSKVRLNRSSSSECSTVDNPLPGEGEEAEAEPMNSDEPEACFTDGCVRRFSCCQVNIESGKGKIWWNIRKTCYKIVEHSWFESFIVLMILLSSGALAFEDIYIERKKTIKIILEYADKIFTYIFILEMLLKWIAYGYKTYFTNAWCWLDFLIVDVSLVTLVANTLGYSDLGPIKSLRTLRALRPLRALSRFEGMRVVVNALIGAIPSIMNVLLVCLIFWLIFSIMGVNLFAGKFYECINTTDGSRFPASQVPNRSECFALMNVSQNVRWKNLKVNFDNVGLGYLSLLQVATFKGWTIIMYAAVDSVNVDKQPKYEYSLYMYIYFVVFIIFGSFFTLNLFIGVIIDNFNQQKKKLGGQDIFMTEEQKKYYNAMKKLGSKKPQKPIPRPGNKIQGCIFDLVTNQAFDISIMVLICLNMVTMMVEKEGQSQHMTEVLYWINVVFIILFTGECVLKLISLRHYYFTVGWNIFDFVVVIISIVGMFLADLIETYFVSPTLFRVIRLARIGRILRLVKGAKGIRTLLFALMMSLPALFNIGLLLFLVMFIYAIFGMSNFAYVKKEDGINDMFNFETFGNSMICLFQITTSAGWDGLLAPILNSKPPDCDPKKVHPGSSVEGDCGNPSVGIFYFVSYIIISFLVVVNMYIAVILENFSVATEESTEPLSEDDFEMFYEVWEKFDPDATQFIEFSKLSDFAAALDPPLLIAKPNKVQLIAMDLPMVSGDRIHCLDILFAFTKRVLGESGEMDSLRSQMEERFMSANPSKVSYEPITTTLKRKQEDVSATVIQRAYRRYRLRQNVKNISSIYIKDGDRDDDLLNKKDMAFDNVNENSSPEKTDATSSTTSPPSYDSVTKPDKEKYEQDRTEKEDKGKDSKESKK"}, "source": "patent US9624280B2", "about": "(JANSSEN BIOTECH, INC., priority 2013, dated 2017)", "assay_type_in_all_cases": "cell-based", "key": {"human Nav1.6": {"biological_target": "T1, human Nav1.6 (Homo sapiens, UniProt Q9UQD0)", "T1 construct": "expressed in transfected cells"}, "human Nav1.7 [1]": {"biological_target": "T2, human Nav1.7 (Homo sapiens, UniProt Q15858, W1161R)", "T2 construct": "expressed in transfected cells", "conditions": "read-out: IC50 for Nav1.7, QPatch electrophysiology assay"}, "human Nav1.7 [2]": {"biological_target": "T2, human Nav1.7", "conditions": "read-out: IC50 value for human Nav1.7, FLIPR Tetra veratridine-induced depolarization inhibition assay"}}, "note": "Like-named read-outs stand apart in the source and are kept apart here. No end group written: not given here."}
{"substance": "GPQCQKWMQTCDRERKCCEGFVCTLWCRKKLW-COOH [NV1D3034]", "values": [{"measurement": "selectivity for Nav1.7 compared to recombinant Protoxin-II", "setting": "human Nav1.6", "result": "improved selectivity"}]}
{"substance": "GPYCQKWMWTCDSERKCCEGMVCRLWCKKKLW-OH (cysteine pairing not given here) [NV1D12, reference compound]", "values": [{"measurement": "IC50", "setting": "human Nav1.7 [1]", "result": "~2.2", "unit": "nM"}, {"measurement": "IC50", "setting": "human Nav1.7 [2]", "result": "~4", "unit": "nM"}]}
